Km, kcat and kcat/Km data for one protein are collected here from paper PMC7424261.

Substrate in data set [1]: NC(=O)c1ccc[n+]([C@@H]2O[C@H](COP(=O)(O)OP(=O)(O)OC[C@H]3O[C@@H](n4cnc5c(N)ncnc54)[C@H](OP(=O)(O)O)[C@@H]3O)[C@@H](O)[C@H]2O)c1
The experiment in a line: purified protein. Conditions: oxidative deamination, 10 mM meso-DAP, 200 mM glycine-KOH pH 10.5, NADP+ 0.015-1.25 mM, varied: cofactor.

Substrate in data set [2]: N[C@H](CCC[C@H](N)C(=O)O)C(=O)O
The experiment in a line: purified protein. Conditions: oxidative deamination, 1.25 mM NADP+ (standard assay), 200 mM glycine-KOH pH 10.5, meso-DAP 0.5-15 mM.

B1: NmDAPDH (meso-diaminopimelate dehydrogenase from Numidum massiliense) (Numidum massiliense) (protein)
chain: MSNVYNVAVVGYGNIGKYAVQAIDAAPDMQLAGVVRRASSAAKDTPPELVGRRVVHDIRDLEQVDVAILAAPTRTIPAYARDVLSLGIHTVDSYDIHGELANLRRELDDVSKKNDSVAIISAGWDPGTDSMIRGMLEFMAPGGLTYTNFGPGMSMGHSVAVKAIDGVKDALSLTIPLGTSIHRRMVYVELEAGADFETVKKAILADPYFVNDETHVTQVPNVQQLVNVGHGVSMERRGVSGATHNQLFTFEMRINNPALTSQVLVAAARATFKQQPGAYTMIEVPVIDYLPGDRDDIIRRLV
Regarding B1, in “purified protein [1]”, the Michaelis-Menten constant (Km) (in general, the substrate concentration at which the rate is half of its maximum) was 302 µM; the kcat (commonly the maximal rate divided by the concentration of active sites) stood at 792 s⁻¹; the specificity constant (kcat/Km) (commonly the turnover number divided by the Michaelis constant) was determined as 2.62e+06 M⁻¹ s⁻¹. For the same protein, in “purified protein [2]”, the Michaelis constant (Km) came to 3340 µM, the catalytic constant (kcat) is 638 s⁻¹ and the kcat/Km amounted to 192000 M⁻¹ s⁻¹.
